# Results reported in ChEMBL document CHEMBL1138542, “In-vitro regeneration of sarin inhibited electric eel acetylcholinesterase by bis-pyridinium oximes bearing xylene linker” (2009).
# Amino acid sequences for entries named in this document (tags omitted). A change or cut given only in a name is not applied to a line headed by its entry.
# UniProt O42275: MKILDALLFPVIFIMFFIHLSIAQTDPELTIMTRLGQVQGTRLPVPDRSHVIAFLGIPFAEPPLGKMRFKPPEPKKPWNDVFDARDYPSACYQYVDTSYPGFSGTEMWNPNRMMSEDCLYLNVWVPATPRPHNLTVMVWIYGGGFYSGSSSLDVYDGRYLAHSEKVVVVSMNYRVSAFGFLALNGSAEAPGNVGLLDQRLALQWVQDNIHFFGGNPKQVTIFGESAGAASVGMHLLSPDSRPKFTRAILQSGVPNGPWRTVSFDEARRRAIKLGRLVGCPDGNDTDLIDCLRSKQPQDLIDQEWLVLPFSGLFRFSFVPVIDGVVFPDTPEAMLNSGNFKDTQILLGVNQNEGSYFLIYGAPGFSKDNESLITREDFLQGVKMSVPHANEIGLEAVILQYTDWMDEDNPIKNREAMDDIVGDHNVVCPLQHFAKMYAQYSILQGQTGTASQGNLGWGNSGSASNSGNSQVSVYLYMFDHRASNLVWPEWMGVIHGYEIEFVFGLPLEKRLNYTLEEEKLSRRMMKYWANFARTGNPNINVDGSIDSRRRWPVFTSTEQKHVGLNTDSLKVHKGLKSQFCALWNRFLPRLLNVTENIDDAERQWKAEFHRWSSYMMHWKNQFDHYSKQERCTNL
# How the values were obtained:
# [1] = target: Acetylcholinesterase (Electrophorus electricus) (UniProt O42275); assay: Reactivation of sarin-inhibited electric eel AChE after 10 mins by Ellman's method relative to control
# [2] = target: Acetylcholinesterase (Electrophorus electricus) (UniProt O42275); assay: Reactivation of sarin-inhibited electric eel AChE at 10 uM after 10 mins by Ellman's method relative to control; set-up: scale not given: the % may be the effect or the level left
# [3] = target: Acetylcholinesterase (Electrophorus electricus) (UniProt O42275); assay: Reactivation of sarin-inhibited electric eel AChE at 100 uM after 10 mins by Ellman's method relative to control; set-up: scale not given: the % may be the effect or the level left
Structure (SMILES),Activity [1],Activity [2],Activity [3] [%]
O/N=C/c1cccc[n+]1Cc1ccccc1C[n+]1ccccc1/C=N/O,Active,–,–
O/N=C/c1cccc[n+]1Cc1ccc(C[n+]2ccccc2/C=N/O)cc1,–,Active,–
O/N=C/c1ccc[n+](Cc2ccccc2C[n+]2cccc(/C=N/O)c2)c1,–,Active,–
O/N=C\c1cc[n+](Cc2ccccc2C[n+]2ccc(/C=N\O)cc2)cc1,inactive,–,–
O/N=C/c1ccc[n+](Cc2ccc(C[n+]3cccc(/C=N/O)c3)cc2)c1,–,20%,35
O/N=C/c1ccc[n+](Cc2cccc(C[n+]3cccc(/C=N/O)c3)c2)c1,–,10%,25

# The source made the active and inactive calls. The rule behind the calls is not given here.
